Only some compounds are listed: those with a hit (about 0.92% of all), similar ones and a draw of the others.
miR-21 reporter: miR-21 reporter, rising signal. 340,000 tested, under 10 active. Potency, µM (highest dose often 38.3 µM), for the others: at the highest dose reporter change, positive = more light. HeLa miR-21 FLuc reporter, luciferase, 48 h. AID 2288; active = well fitted rising curve with a large enough effect; inconclusive = small, poorly fitted or top-dose-only effect; inactive = no such curve, though single readings can be large or run the other way;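 further: % of control where 0% means no effect; miR-21 action dims this reporter so a rising signal means less miR-21 action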
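Using DMEM plus 10% FBS, HeLa miR-21-FLuc cells are incubated with test compounds (final up to about 40uM) for 48 hours; firefly luciferase signal is then imaged following reagent-mediated lysis.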
uPA surface inh: cell surface uPA generation inhibition; cell surface uPA generation assay, qHTS; Potency, µM (titrated, usually from 38.3 µM), without a hit: top-dose activity change, negative = inhibition, hits mostly inhibitors; 330,000 compounds, 0.31% hits; AID 540303; active = well fitted inhibition curve with a large enough effect; inconclusive = small, poorly fitted or top-dose-only effect; inactive = no such curve, though single readings can be large or run the other way; tested in mouse RAW 264.7 cells; also: potency is read from the fitted curve at half-maximal effect; % is scaled to controls: 0 for no effect and ±100 for the full control effect; nearly all actives have a fitted effect of over 55% in size
B2AR arrestin: beta2AR (human) beta-arrestin recruitment activity | P07550 | beta-arrestin recruitment to beta2AR, cell-based reporter | Potency, µM (titrated, usually from 46.1 µM), inactives show top-dose activation, actives largely listed as activators | 330,000 compounds, 0.02% hits;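 also: potency is read from the fitted curve at half-maximal effect; 0% = DMSO controls and full agonism = EC100 isoproterenol or metaproterenol; nearly all actives have a fitted effect of over 65% in size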
FBPA coupling cs: coupling enzyme interference in Giardia aldolase counter-screen. coupling enzyme system counterscreen, AmpLite Red fluorescence. activity change, negative = inhibition, % at 58.2 µM, hits read low. 290,000 compounds, 0.67% hits. AID 2472; in the data active = activity change below about -30%; also: % is scaled to controls: 0 for no effect and ±100 for the full control effect
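Final compound at 57.5 uM, incubated 10 min at RT with coupling enzyme reagent (glyceraldehyde-3-phosphate), then 20 min with substrate and AmpLite Red detection. Fluorescence read at 525/598 nm; tests interference with the coupling assay, not aldolase inhibition.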
GALK inh: galactokinase (human) inhibition. Potency, µM (series often up to 57.5 µM), for inactives: at the highest dose activity change, negative = inhibition, usual class: inhibitors. 270,000 compounds, 0.007% hits. P51570. Purified GALK, Kinase-Glo residual ATP luminescence; also: potency is read from the fitted curve at half-maximal effect; % is scaled to controls: 0 for no effect and ±100 for the full control effect
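Galactose (100 uM) and ATP (35 uM) were turned over by 5 nM GALK for 1 h at RT. Kinase-Glo Plus then converted the remaining ATP into a luminescent signal.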
Giardia kill: kills Giardia lamblia; Giardia lamblia trophozoite viability; activity change, % at 7.66 µM, hits read low; 340,000 compounds, 0.15% hits; AID 540267; in the data active = activity change below about -80%; inconclusive = between about -30% and that limit;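 also: parasites exposed to compound for two days anaerobically before the ATP read; % is scaled to controls: 0 for no effect and ±100 for the full control effect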
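ATP-content bioluminescence gauges trophozoite survival. Cells (100/well) receive compound and incubate anaerobically for 48 hrs at 37 deg C; detection reagent follows for 15-30 min at room temperature.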
The depositor's hits bear a star; ? = inconclusive; . = not tested or not shown. Unless noted, calls follow the shape of the dose curve; as a rule, active = well fitted curve in the direction sought with a large enough effect; inconclusive = small, poorly fitted or top-dose-only effect, or another doubt; inactive = no such curve, though single readings can be large; an effect the other way counts as inactive or inconclusive.

SMILES	miR-21 reporter	uPA surface inh	B2AR arrestin	FBPA coupling cs	GALK inh	Giardia kill
CN1C(=O)/C(=C/c2ccc(OCc3ccc(F)cc3)cc2)N(C)C1=S	-3%	7%	0%	-3	-5%	-15
CN1C(=O)/C(=C/c2ccccc2OCc2cccc(F)c2)N(C)C1=S	-1%	2%	0%	-37*	4%	12
COC(=O)c1nn(-c2ccc3c(c2)OCO3)cc1O	-26%	.	0%	.	6%	-2
COC(=O)c1nn(-c2ccc3c(c2)CCN3C(C)=O)cc1O	?	.	0%	.	13%	-87*
O=C1N/C(=C/c2ccc(N3CCOCC3)o2)C(=O)N1c1cccc(Cl)c1	20%	4µM*	0%	-5	-1%	31
CN1C2=CC=CC=CC2=[N+](C)C12C([N+](=O)[O-])=CC(=[N+]([O-])[O-])C=C2[N+](=O)[O-] (stereo unspecified)	1%	5%	0%	-16	5%	-94*
CN(C(=S)Nc1ccc(SC(F)F)cc1)c1ccc(O)cc1	-4%	-10%	0%	-34*	0%	-25
CN(C(=S)Nc1ccccc1)c1ccccc1	-1%	8%	0%	4	.	-12
CN(C(=S)Nc1cccnc1)c1ccc(O)cc1	-14%	5%	-1%	-33*	1%	19
CN(C(=S)Nc1ccc(Oc2ccccc2)cc1)c1ccc(O)cc1	-7%	-5%	5%	-50*	0%	-5
CC(C)(C)C(=O)NC1(C(F)(F)F)C(=O)Nc2c1c(=O)[nH]c(=O)n2-c1ccccc1 (stereo unspecified)	-2%	.	.	.	.	.
O=S(=O)(Nc1cccc2cccnc12)c1ccc(Br)cc1	.	.	.	-17	.	.
C=CC(C1=CC(=O)C(OC)=CC1=O)c1ccc(OC)cc1 (stereo unspecified)	.	.	.	-40*	.	.
C=CC(C1=CC(=O)C(OC)=CC1=O)c1ccccc1 (stereo unspecified)	.	.	.	-53*	.	.
COC1=C(OC)C(=O)C(Sc2ccc3ccccc3c2)=CC1=O	.	-9%	.	.	.	-8
C=CC(C1=CC(=O)C(OC)=C(OC)C1=O)c1ccccc1 (stereo unspecified)	.	.	.	-80*	.	.
Cc1ccc(Sc2ccc(NC(=O)CCl)cc2)cc1C	27%	13µM*	5%	4	-6%	1
Cc1ccc(C)c(Sc2ccc(NC(=O)CCl)cc2)c1	21%	?	?	-1	-3%	?
O=C(O)c1cc(C(=O)O)c(C(=O)N(Cc2cccc(Oc3ccccc3)c2)[C@H]2CCCc3ccccc32)cc1C(=O)O	.	.	.	10	.	.
O=C(Nc1ccc2nn(-c3ccccc3)nc2c1)c1ccc(-c2cccc(Cl)c2)o1	-46%	.	.	.	.	.
CCOC(=O)Nc1c(O)ccc2oc(C)c(-c3ccccc3)c12	0%	2%	0%	-57*	-1%	-11
COc1ccc(C(=O)Nc2ccccc2C(=O)N/N=C/c2cccc3ccccc23)cc1	-31%	-4%	-1%	1	.	-95*
COc1ccc([N+](=O)[O-])cc1/C=N/NC(=O)CNC(=O)C(c1ccccc1)c1ccccc1	-11%	10%	0%	-30*	0%	-9
COc1cccc(/C=N/NC(=O)c2cccc3ccccc23)c1	0%	-3%	-1%	-1	-1%	-6
O=C(Nc1ccccc1C(=O)N/N=C/c1ccccc1)c1ccco1	-24%	-12%	0%	-2	11%	23
COc1ccc([N+](=O)[O-])cc1/C=N/NC(=O)CNC(=O)c1cccc(F)c1	-5%	-5%	5%	-16	-1%	-6
COc1ccc(OC)c(/C=N/NC(=O)CNC(=O)c2cccc3ccccc23)c1	0%	13%	-1%	-34*	2%	2
O=C(Nc1ccccc1C(=O)N/N=C/c1ccc(O)cc1)c1ccccc1	-50%	7.1µM*	0%	1	21%	-17
COc1ccccc1C(=O)NC1(C(F)(F)F)C(=O)Nc2c1c(=O)[nH]c(=O)n2-c1ccccc1 (stereo unspecified)	2%	.	.	.	.	.
Cc1ccc(CN2CCCn3nc(C(=O)NCCc4cccc(C)c4)cc3C2=O)cc1	1%	.	.	.	.	.
CN1CCN(C(=O)c2sc(=S)n(-c3ccccc3)c2N)CC1	-4%	0%	0%	-48*	3%	-11
Cc1ccc(-n2c(N)c(C(=O)N3CCOCC3)sc2=S)cc1	-12%	.	0%	0	1%	-2
CCc1ccc2[nH]c(=O)c(CN(Cc3cccnc3)Cc3nnnn3Cc3ccccc3)cc2c1	.	.	.	.	.	12
CCOC(=O)C1=C(Cc2ccc(C)cc2)C(=O)c2ccccc2C1=O	?	.	0%	-47*	1%	.
CCOC(=O)C1=C(Cc2ccc(OC)cc2)C(=O)c2ccccc2C1=O	?	.	0%	-56*	2%	-14
CCOC(=O)c1c(C)nc2c(c1-c1cc(OC)ccc1OC)C(=O)c1ccccc1-2	-6%	3%	0%	-2	0%	0
CCOC(=O)c1ccc(COC(=O)c2ccc3c(c2)-c2ccccc2C3=O)cc1	-4%	4%	0%	-1	3%	0
COc1ccc(C(=O)Nc2cccc(-c3cn4ccsc4n3)c2)c(OC)c1	-20%	.	.	.	.	.
CCN(CC)c1ccc2cc(-c3nc(-c4cccs4)no3)c(=O)oc2c1	-40%	.	.	.	.	.
Cc1cc(C(=O)COC(=O)c2cccnc2Cl)c(C)n1C	.	8.9µM*	0%	.	.	?

Rewritten as a markdown table: part of the list above.
| structure | miR-21 reporter | uPA surface inh | B2AR arrestin | FBPA coupling cs | GALK inh | Giardia kill |
| --- | --- | --- | --- | --- | --- | --- |
| Cc1cc(C(=O)COC(=O)c2cccnc2Cl)c(C)n1C | . | 8.9µM* | 0% | . | . | ? |
| O=C(Nc1ccccc1C(=O)N/N=C/c1ccc(O)cc1)c1ccccc1 | -50% | 7.1µM* | 0% | 1 | 21% | -17 |

Returning to the listing, starting three compounds before the break.
SMILES	miR-21 reporter	uPA surface inh	B2AR arrestin	FBPA coupling cs	GALK inh	Giardia kill
COc1ccc(C(=O)Nc2cccc(-c3cn4ccsc4n3)c2)c(OC)c1	-20%	.	.	.	.	.
CCN(CC)c1ccc2cc(-c3nc(-c4cccs4)no3)c(=O)oc2c1	-40%	.	.	.	.	.
Cc1cc(C(=O)COC(=O)c2cccnc2Cl)c(C)n1C	.	8.9µM*	0%	.	.	?
CSc1ncccc1C(=O)OCC(=O)c1cc(C)n(C)c1C	.	5%	0%	.	.	-27
COC(=O)c1ccc(OCC2c3cc(OC)c(OC)cc3CCN2C(=O)c2ccccc2F)cc1 (stereo unspecified)	6%	.	.	.	.	.
Cc1cccc(C(=O)N[C@H](C(=O)Nc2nc3ccccc3[nH]2)C(C)C)c1	24%	2.8µM*	0%	1	3%	28
COc1ccc(C(=O)N[C@H](C(=O)Nc2nc3ccccc3[nH]2)C(C)C)cc1	-9%	-5%	0%	1	0%	-4
S=c1nc2ccccc2c2nc(-c3ccccc3)[nH]n12	-27%	-3%	4µM*	-13	-4%	-10
S=c1nc2ccccc2c2nc(-c3ccccc3Cl)[nH]n12	-12%	-13%	0%	-2	1%	14
CCCCn1c(NC(C)=O)c(C#N)c2nc3ccccc3nc21	-8%	0%	0%	-59*	0%	-4
C=CCn1c(NC(=O)c2ccccc2Cl)c(C#N)c2nc3ccccc3nc21	29%	0%	0%	-52*	-1%	-20
CCCCNc1nc(Oc2ccc(=O)n(C)n2)nc(N2CCOCC2)n1	3%	.	.	.	.	.
O=C(Cn1c(=O)n(Cc2ccc3c(c2)OCO3)c(=O)c2ccc(C(=O)NC3CCCCC3)cc21)Nc1ccccc1F	-19%	.	.	.	.	.
O=C(NNC(=S)NCc1ccc(Cl)cc1)c1ccc(Br)o1	-1%	5%	-1%	1	2%	12

Look-ups from above.
CCCCNc1nc(Oc2ccc(=O)n(C)n2)nc(N2CCOCC2)n1 @ miR-21 reporter = 3%
COC(=O)c1ccc(OCC2c3cc(OC)c(OC)cc3CCN2C(=O)c2ccccc2F)cc1 (stereo unspecified) @ miR-21 reporter = 6%

Screening data: PubChem BioAssay, National Center for Advancing Translational Sciences (NCATS)
